## Reported properties for industrial, environmental and drug-like chemicals

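The OPERA project collected these measurements from public sources as training and test data for property models. The files give a single number for a compound and property, which may rest on several reports. Method and conditions are not stated for these values. Where a salt, mixture or single isomer is drawn, the source does not say that exactly this form was tested. Some upstream entries may be estimates or bounds without being marked so.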

The melting point is given in degrees Celsius.
Boiling points are in °C, nominally at 760 mmHg.
logP is the log10 of the octanol-water partition coefficient; higher is more lipophilic.
Solubility in water is on a log10 molar scale (set defined at 25 °C).
Vapor pressure is log10 of mmHg; the set covers 15 to 30 °C, mostly 20 to 25 °C.
The unbound fraction in human plasma runs from 0 (all bound) to 1 (all free).
Clint is human hepatic intrinsic clearance in µL/min per million cells; 0 means that no clearance was seen.

- CC(=O)C(=NNc1ccc(-c2ccc(NN=C(C(C)=O)C(=O)Nc3ccc(C)cc3C)c(Cl)c2)cc1Cl)C(=O)Nc1ccc(C)cc1C [C.I. Pigment Yellow 13]: logP (octanol/water) 1.8; water solubility -7.535 (log10 mol/L)
- CCC1(CO)COCOC1 [(5-Ethyl-1,3-dioxan-5-yl)methanol]: BP 239.2 °C; logP (octanol/water) 0.19
- CC(C)(C)OC(=O)C(C)(C)ON=C(C(=O)O)c1csc(NC(c2ccccc2)(c2ccccc2)c2ccccc2)n1: melting point 165 °C; water solubility -8.221 (log10 mol/L)
- OCC(CO)(CBr)CBr [Pentaerythritol dibromide]: BP 252.5 °C; vapor pressure -4.824 (log10 mmHg)
- N[C@@H](C(=O)N[C@@H]1C(=O)N2C(C(=O)O)=C(Cl)CC[C@H]12)c1ccccc1: logP (octanol/water) 0.5; water solubility -3.032 (log10 mol/L); plasma fu 0.75
- CC1(C)COC(=O)C2CC=CCC2C(=O)OC1 (stereo unspecified): logP (octanol/water) 1.14; water solubility -3.004 (log10 mol/L); vapor pressure -6.472 (log10 mmHg)
- CCCCCCCCC(CCCCCC)C(=O)O (stereo unspecified) [2-Hexyldecanoic acid]: BP 331 °C; water solubility -5.71 (log10 mol/L); vapor pressure -6.211 (log10 mmHg)
- Oc1ccc(-c2ccc(O)cc2)cc1 [4,4'-Biphenyldiol]: logP (octanol/water) 2.7; water solubility -3.742 (log10 mol/L)
- CC1(C)[C@H]2CC[C@]3(C2)[C@H]1C1(CCC3(C)C)OCCO1: BP 280 °C; logP (octanol/water) 5.69; water solubility -5.221 (log10 mol/L); vapor pressure -2.362 (log10 mmHg)
- COCCCCC(=O)c1ccc(C(F)(F)F)cc1 [Fluvoxketone]: logP (octanol/water) 3.3; water solubility -3.544 (log10 mol/L); vapor pressure -5.98 (log10 mmHg)
- COc1c(Cl)cc(Cl)c(Cl)c1Cl: melting point 64 °C; water solubility -5.13 (log10 mol/L)
- CC1(C)Nc2cccc3cccc(c23)N1 [2,2-Dimethyl-2,3-dihydroperimidine]: melting point 110 °C; logP (octanol/water) 2.25; water solubility -2.93 (log10 mol/L); vapor pressure -5.084 (log10 mmHg)
- O=C1CCc2ccccc2O1 [3,4-Dihydrocoumarin]: logP (octanol/water) 1.82; water solubility -1.932 (log10 mol/L)
- CN1CCNCC1 [1-Methylpiperazine]: logP (octanol/water) -0.57; vapor pressure 0.772 (log10 mmHg)
- CCCNCC [1-Propanamine, N-ethyl-]: melting point -51.5 °C; vapor pressure 1.779 (log10 mmHg)
- CC(C)C(=O)Nc1ccc([N+](=O)[O-])c(C(F)(F)F)c1 [Flutamide]: water solubility -4.688 (log10 mol/L); plasma fu 0.04694; intrinsic clearance 30.38 µL/min/10^6 cells
- CCCC1CCC(C2CCC(c3ccc(OC(F)(F)F)cc3)CC2)CC1 (stereo unspecified): melting point 69.9 °C; water solubility -6.265 (log10 mol/L)
- CC(C)(C)C(=O)OC(=O)C(C)(C)C [Trimethylacetic anhydride]: melting point 2.13 °C; vapor pressure -0.357 (log10 mmHg)
- Oc1ccc2ccccc2c1N=Nc1ccccc1 [C.I. Solvent Yellow 14]: BP 265 °C; water solubility -5.561 (log10 mol/L)
- COC(=O)C1=C(C)NC(C)=C(C(=O)OC(C)C)C1c1cccc2nonc12 (stereo unspecified) [Isradipine]: water solubility -3.212 (log10 mol/L); plasma fu 0.04333; intrinsic clearance 47.6 µL/min/10^6 cells
- C#CC(C)(O)CCC=C(C)C (stereo unspecified) [Dehydrolinalool]: melting point -72 °C; logP (octanol/water) 2.61; water solubility -1.772 (log10 mol/L); vapor pressure -1.545 (log10 mmHg)
- FC(C(F)(F)F)C(F)(F)Oc1cc(Cl)ccc1Cl (stereo unspecified) [1,4-Dichloro-2-(1,1,2,3,3,3-hexafluoropropoxy)benzene]: melting point -16.77 °C; BP 214.3 °C; logP (octanol/water) 4.72; water solubility -5.018 (log10 mol/L); vapor pressure -0.725 (log10 mmHg)
- CC(CC(C)(C)C)CP(=O)(O)CC(C)CC(C)(C)C (stereo unspecified) [P,P-Bis(2,4,4-trimethylpentyl)phosphinic acid]: BP 341.3 °C; water solubility -4.366 (log10 mol/L); vapor pressure -4.745 (log10 mmHg)

2 of these entries, quoted again:

{"smiles": "CC1(C)[C@H]2CC[C@]3(C2)[C@H]1C1(CCC3(C)C)OCCO1", "BP (°C)": "280", "logP (octanol/water)": "5.69", "water solubility (log10 mol/L)": "-5.221", "vapor pressure (log10 mmHg)": "-2.362"}
{"smiles": "CC(CC(C)(C)C)CP(=O)(O)CC(C)CC(C)(C)C", "stereo": "stereo unspecified", "name": "P,P-Bis(2,4,4-trimethylpentyl)phosphinic acid", "BP (°C)": "341.3", "water solubility (log10 mol/L)": "-4.366", "vapor pressure (log10 mmHg)": "-4.745"}

Data: OPERA 2.9 data sets, kmansouri/OPERA on GitHub.